# Source: ChEMBL document CHEMBL6078669, “Stereoisomers of cannabidiols and their pharmacological activities - A potentially novel direction for cannabinoids” (Bioorg Med Chem, 2025)
# The chains behind the UniProt entries cited, without tags or fusion partners.
# UniProt P34972, whole entry: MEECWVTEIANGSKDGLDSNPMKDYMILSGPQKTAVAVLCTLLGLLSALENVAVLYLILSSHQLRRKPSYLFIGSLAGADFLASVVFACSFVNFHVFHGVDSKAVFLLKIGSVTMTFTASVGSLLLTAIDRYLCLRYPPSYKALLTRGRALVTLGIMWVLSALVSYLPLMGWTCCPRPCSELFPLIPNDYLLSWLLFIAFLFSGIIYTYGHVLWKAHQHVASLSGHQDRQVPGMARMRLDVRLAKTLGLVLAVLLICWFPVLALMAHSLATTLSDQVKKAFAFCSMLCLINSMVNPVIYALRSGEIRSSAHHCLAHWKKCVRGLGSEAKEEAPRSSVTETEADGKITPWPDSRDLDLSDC
# What was measured:
# [1] = Selectivity index, ratio of Ki for Sabra rat brain synaptosome CB1 receptor to Ki for CB2 receptor (unknown origin) extracted from green monkey COS-7 cells
# [2] = organism: Homo sapiens; test: Selectivity ratio of Ki for human CB1 receptor extracted from HEK293 cell membrane to Ki for human CB2 receptor extracted from HEK293 cell membrane
# [3] = target: T1, Cannabinoid receptor 2 (Homo sapiens, UniProt P34972); test: Agonist activity at human CB2 receptor extracted from CHO cell membrane assessed as increase in [35S]GTPgammaS binding incubated for 60 mins by liquid scintillation spectrometric analysis; type: functional, cell membranes
# [4] = target: T1, Cannabinoid receptor 2; test: Binding affinity to CB2 receptor (unknown origin) assessed as inhibition constant
smiles,measurement,setting,value
C=C(C)[C@H]1CCC(CO)=C[C@@H]1c1c(O)cc(C(C)(C)CCCCCC)cc1O,Ratio Ki,[1],0.05
C=C(C)[C@H]1CCC(C)=C[C@@H]1c1c(O)cc(CCC)cc1O,Ratio Ki,[2],8.9
C=C(C)[C@H]1CCC(C)=C[C@@H]1c1c(O)cc(CCCCC)cc1O,Ratio Ki,[1],4.1
CCCCCCC(C)(C)c1cc(OC)c([C@H]2C=C(CO)[C@H]3C[C@@H]2C3(C)C)c(OC)c1,EC50,[3],5.57 nM
CCCCCCC(C)(C)c1cc(OC)c([C@@H]2C=C(CO)[C@@H]3C[C@H]2C3(C)C)c(OC)c1 [ONTERNABEZ],Ki,[4],> 1000 nM
C=C(C)[C@@H]1CCC(C)=C[C@H]1c1c(O)cc(CCCCC)c(C(=O)OCC(O)CCC)c1O (some centres not stated),Ratio Ki,[2],8.1
C=C(C)[C@H]1CCC(C)=C[C@@H]1c1c(O)cc(C(C)(C)CCCCCC)cc1O,Ratio Ki,[1],0.08
